High-throughput results: PubChem BioAssay, National Center for Advancing Translational Sciences (NCATS)
miR-21 reporter – miR-21 reporter, rising signal. 340,000 tested, under 10 active. Potency, µM (highest dose often 38.3 µM). HeLa miR-21 FLuc reporter, luciferase, 48 h. AID 2288; active = well fitted rising curve with a large enough effect; inconclusive = small, poorly fitted or top-dose-only effect; inactive = no such curve, though single readings can be large or run the other way;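 further: miR-21 action dims this reporter so a rising signal means less miR-21 action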
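HeLa miR-21-FLuc reporter line, endogenous miR-21; 2000 cells/well in DMEM/10% FBS; compound titration up to ~40uM final, 48 h, 37 degree Celsius; luciferase detection reagent, 15 min lysis, CCD luminescence.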
LMNA splice mod – LMNA splicing modulation | HeLa LMNA splicing GFP/RFP minigene ratio, 48 h | Potency, µM (titrated, usually from 46.1 µM), actives largely listed as inhibitors | actives 0.01% (n = 200,000) | AID 1487; active = well fitted inhibition curve with a large enough effect in the signal ratio, with a control signal flat, not every such curve was filed as active; inconclusive = small, poorly fitted or top-dose-only effect, or effect the other way, or a change in a side signal; the % refers to the signal ratio
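Read-out is the ratio of GFP to DsRed2 object intensity, acquired by 488 nm laser-scanning cytometry on HeLa lamin A-EGFP minigene reporter cells. Compound incubation 48 hrs at 37 °C in Opti-MEM with 2% FBS; DMSO 0.5% final.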
G9a block – inhibitors of human histone lysine methyltransferase G9a; Q96KQ7; actives 8.8% (n = 350,000); Potency, µM (titrated, usually from 102 µM), hits mostly inhibitors; G9a H3K9 monomethylation, AlphaScreen, 2 h; note: nearly all actives have a fitted effect of over 75% in size
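Step 1: enzyme (final 20 nM) with compound, 15 min RT. Step 2: substrate peptide 500 nM and SAM 20 uM, 2 h RT. Step 3: anti-H3K9me1 antibody and AlphaScreen beads, 10 min, then plate read.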
ALDH1A1 inh – blocks purified human ALDH1A1 activity | P00352 | Potency, µM (top dose mostly 75.3 µM), hits mostly inhibitors | Purified ALDH1A1, NADH fluorescence, propionaldehyde substrate | AID 1030 | actives 7.3% (n = 220,000); active = well fitted inhibition curve with a large enough effect, not every such curve was filed as active; inconclusive = small, poorly fitted or top-dose-only effect, or another doubt; inactive = no such curve, though single readings can be large or run the other way
Sfp inh – inhibitors of Bacillus subtilis Sfp phosphopantetheinyl transferase; Q9F4F7; Biochemical Sfp PPTase activity, qHTS; Potency, µM, most hits filed as inhibitors; actives 3.5% (n = 310,000); AID 1490;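 note: the enzyme is Sfp with the accession as filed and its product quenches rhodamine fluorescence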
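With Hepes-Na pH 7.6 buffer containing 10 mM MgCl2, Sfp (15 nM) modified BHQ-2-YbbR (12.5 uM) using rhodamine-CoA (5 uM). Two reads 30 minutes apart at 525/598 nm yielded each well's rate.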
KDM4E inh – inhibitors of human JMJD2E histone demethylase. actives 1.6% (n = 230,000). B2RXH2. JMJD2E catalytic domain, FDH-coupled NADH fluorescence (FDH is formaldehyde dehydrogenase). Potency, µM (doses to about 57.1 µM), usual class: inhibitors; active = well fitted inhibition curve with a large enough effect, not every such curve was filed as active; inconclusive = small, poorly fitted or top-dose-only effect, or another doubt; inactive = no such curve, though single readings can be large or run the other way; note: nearly all actives have a fitted effect of over 50% in size
Of the large screens only hits and unclear results are named; the others gave an inactive call. This is a sample that favours compounds with a hit; in the whole collection about 13% have one here. Unless noted, calls come from the whole dose curve; as a rule, active = well fitted curve in the direction sought with a large enough effect; inconclusive = small, poorly fitted or top-dose-only effect, or another doubt; inactive = no such curve, though single readings can be large; an effect the other way counts as inactive or inconclusive.

O=C(O)CCC(=O)Nc1sc2c(c1C(=O)NC1CCCC1)CCCC2	none (no result: LMNA splice mod, ALDH1A1 inh, KDM4E inh)
COC(=O)Nc1sc2c(c1C(=O)NC1CC1)CCCCCC2	G9a block inconclusive, ALDH1A1 inh inconclusive, Sfp inh 32µM
O=C(Nc1sc2c(c1C(=O)NC1CC1)CCCCCC2)c1ccco1	G9a block inconclusive, ALDH1A1 inh inconclusive, Sfp inh 40µM, KDM4E inh inconclusive
CC(C)OC(=O)c1c(NC(=O)c2ccco2)sc2c1CCCCC2	ALDH1A1 inh inconclusive, Sfp inh 32µM, KDM4E inh inconclusive
CCC(Oc1ccccc1C)C(=O)N1CCCN(C)CC1 (stereo not drawn)	none (no result: LMNA splice mod, G9a block, ALDH1A1 inh, KDM4E inh)
COc1ccc(Cn2c(CCC(=O)Nc3ccc(OC)c(Cl)c3)nc3cccnc32)cc1	none (no result: LMNA splice mod, ALDH1A1 inh, Sfp inh, KDM4E inh)
CNC(=O)c1c(NC(=O)c2ccco2)sc2c1CCCC2	none (no result: LMNA splice mod, G9a block, ALDH1A1 inh, KDM4E inh)
COC(=O)c1c(NC(=O)C2CC2)sc2c1CCN(C(C)=O)C2	G9a block 45µM, ALDH1A1 inh inconclusive, Sfp inh 14µM, KDM4E inh inconclusive
Cc1ccc(C(=O)C(NC(=O)c2ccco2)Nc2sc3c(c2C(N)=O)CCCC3)cc1 (stereo not drawn)	G9a block 13µM, ALDH1A1 inh inconclusive, Sfp inh 79µM, KDM4E inh inconclusive
COC(=O)c1c(NC(=O)c2ccco2)sc2c1CCN(C(C)C)C2	G9a block 32µM (no result: LMNA splice mod, ALDH1A1 inh, KDM4E inh)
CC(C)N1CCc2c(sc(NC(=O)c3ccco3)c2C(N)=O)C1	none (no result: LMNA splice mod, G9a block, ALDH1A1 inh, KDM4E inh)
Cn1c(N)c(C(=O)CSc2nnc(C3CC3)n2N)c(=O)n(C)c1=O	none (no result: miR-21 reporter, LMNA splice mod, ALDH1A1 inh, Sfp inh, KDM4E inh)
CCc1nnc(NC(=O)C2Cc3ccccc3CN2S(=O)(=O)c2ccc(C)cc2)s1 (stereo not drawn)	G9a block 40µM, ALDH1A1 inh inconclusive
CCS(=O)(=O)N1Cc2ccccc2CC1C(=O)Nc1nc2c(C)cccc2s1 (stereo not drawn)	LMNA splice mod inconclusive, KDM4E inh 25µM
O=C(O)C1Cc2ccccc2CN1S(=O)(=O)c1ccc2ccccc2c1 (stereo not drawn)	G9a block 7.9µM, Sfp inh inconclusive
COc1ccc(S(=O)(=O)N2Cc3ccccc3CC2C(=O)Nc2nccs2)cc1OC (stereo not drawn)	none
COc1ccc(S(=O)(=O)N2Cc3ccccc3CC2C(=O)Nc2nccs2)cc1 (stereo not drawn)	ALDH1A1 inh 5µM
CCS(=O)(=O)N1Cc2ccccc2CC1C(=O)Nc1nc(C)cs1 (stereo not drawn)	none
CCc1nnc(NC(=O)C2Cc3ccccc3CN2S(=O)(=O)c2cccs2)s1 (stereo not drawn)	G9a block 14µM
CCS(=O)(=O)N1Cc2ccccc2CC1C(=O)NC(C)C12CC3CC(CC(C3)C1)C2 (stereo not drawn)	G9a block 14µM
Cc1cccc(Nc2cc(C)c3c(O)cccc3n2)c1C	LMNA splice mod inconclusive, G9a block 50µM, Sfp inh inconclusive, KDM4E inh inconclusive
Cc1cc(Nc2ccccc2O)nc(C)n1	none (no result: ALDH1A1 inh, Sfp inh, KDM4E inh)
O=C(c1ccc(-n2cncn2)c([N+](=O)[O-])c1)N1CCN(S(=O)(=O)c2ccccc2F)CC1	none (no result: miR-21 reporter, LMNA splice mod, ALDH1A1 inh, Sfp inh, KDM4E inh)
Cc1cc(O)c(C(=O)c2ccccc2C(=O)O)cc1C	ALDH1A1 inh 18µM
Cc1[nH]c(=O)c(C(=O)c2ccccc2O)cc1C(=O)O	none
O=C(COc1ccccc1C(=O)NCc1ccccn1)Nc1ccc(Br)cc1	none
Cn1cc(CN2CC3C[C@@H]4CC2C[C@H](C3)C4)c(-c2ccc3c(c2)OCCO3)n1	G9a block 50µM (no result: LMNA splice mod)
O=C1NCCCC2c3cc(O)c4ccccc4c3OC12N1CCCCC1 (stereo not drawn)	miR-21 reporter inconclusive, LMNA splice mod inconclusive, G9a block 3.5µM, ALDH1A1 inh inconclusive, Sfp inh 20µM, KDM4E inh inconclusive
CN(C)CC(CCCCC(CN(C)C)C(=O)c1ccccc1)C(=O)c1ccccc1 (stereo not drawn)	G9a block 50µM (no result: LMNA splice mod, ALDH1A1 inh)
C[C@H](CN(C)C)C(=O)c1ccccc1C(=O)O	none (no result: miR-21 reporter, LMNA splice mod, G9a block, Sfp inh, KDM4E inh)
CCCN1C(=O)C(Cc2nc3ccccc3c(=O)n2-c2ccccc2)c2ccccc21 (stereo not drawn)	ALDH1A1 inh 8.9µM
Cc1ccc(Cl)cc1N1CCN(C(=O)C2CCN(S(=O)(=O)c3c(C)noc3/C=C/c3ccccc3F)CC2)CC1	none (no result: ALDH1A1 inh, Sfp inh, KDM4E inh)
O=C(c1ccc(C(=O)N2CCCCCC2)cc1)N1CCCCCC1	ALDH1A1 inh 18µM
Cc1nc(-c2ccc(C(=O)N3CCCC3)cc2)cs1	ALDH1A1 inh 25µM
CN1CCN(C(=O)c2ccc(CSc3ccc(Cl)cc3)cc2)CC1	LMNA splice mod inconclusive, G9a block inconclusive
Cc1ccc(C(=O)N2CCN=C2SCc2ccc([N+](=O)[O-])cc2)cc1	LMNA splice mod inconclusive, G9a block inconclusive, ALDH1A1 inh inconclusive
Cc1ccc(CSC2=NCCN2C(=O)c2ccc([N+](=O)[O-])cc2)cc1	G9a block 20µM, ALDH1A1 inh 16µM
Cc1ccc(SCc2ccc(C(=O)N3CCCCC3)cc2)cc1	ALDH1A1 inh 4µM
Cc1nc(-c2ccc(C(=O)N3CCOCC3)cc2)cs1	none
O=C(c1ccccc1)N1CCCCCC1	none
Cc1ccc(CNC(=O)C2CCCN(c3nnc(-n4c(C)ccc4C)s3)C2)cc1 (stereo not drawn)	none (no result: LMNA splice mod, ALDH1A1 inh, Sfp inh, KDM4E inh)
COc1ccc(CN2CC(=O)N(c3cc(Cl)ccc3C)C2=S)cc1OC	G9a block 71µM (no result: LMNA splice mod, ALDH1A1 inh, KDM4E inh)
O=C(CCNS(=O)(=O)c1cccc2nonc12)NCc1cccs1	ALDH1A1 inh 20µM
